This note sets out measurements from patent US9611262B2, “Substituted 2-azabicycles and their use as orexin receptor modulators” (JANSSEN PHARMACEUTICA NV, priority 2014, dated 2017).

By UniProt entry, the sequences of proteins in these tests, tags left out.
UniProt O43613, whole entry: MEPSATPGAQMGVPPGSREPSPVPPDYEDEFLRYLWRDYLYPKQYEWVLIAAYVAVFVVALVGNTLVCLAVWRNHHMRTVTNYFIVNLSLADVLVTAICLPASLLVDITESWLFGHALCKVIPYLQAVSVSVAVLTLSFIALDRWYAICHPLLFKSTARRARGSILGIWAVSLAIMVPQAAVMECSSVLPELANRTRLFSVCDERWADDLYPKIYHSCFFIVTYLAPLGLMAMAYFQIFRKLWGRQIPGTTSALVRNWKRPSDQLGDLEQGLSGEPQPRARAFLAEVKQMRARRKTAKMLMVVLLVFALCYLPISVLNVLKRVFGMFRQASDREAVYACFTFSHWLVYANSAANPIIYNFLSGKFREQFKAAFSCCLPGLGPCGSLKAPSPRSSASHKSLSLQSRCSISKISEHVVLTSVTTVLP
UniProt O43614, whole entry: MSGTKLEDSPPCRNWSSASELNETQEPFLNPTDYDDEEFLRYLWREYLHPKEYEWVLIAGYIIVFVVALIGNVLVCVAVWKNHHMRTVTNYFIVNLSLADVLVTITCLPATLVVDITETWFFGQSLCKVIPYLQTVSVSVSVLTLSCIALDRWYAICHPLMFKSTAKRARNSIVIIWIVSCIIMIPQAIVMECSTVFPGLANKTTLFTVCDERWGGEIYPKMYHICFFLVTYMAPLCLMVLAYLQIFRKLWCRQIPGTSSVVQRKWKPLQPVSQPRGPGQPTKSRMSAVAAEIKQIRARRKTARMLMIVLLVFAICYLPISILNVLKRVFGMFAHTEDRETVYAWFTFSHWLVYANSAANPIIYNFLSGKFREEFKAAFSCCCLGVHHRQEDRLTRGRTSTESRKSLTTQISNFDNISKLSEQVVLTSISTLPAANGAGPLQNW

As usually defined, the Ki is a dissociation constant, usually derived from enzyme kinetics or from competition with a known ligand.

Molecules are shown by their SMILES.

One assay has as its target rat orexin 1 receptor (Rattus norvegicus, UniProt P56718). Briefly: Rat orexin 1 receptor radioligand binding (competitive). The note with it: HEK293 cells stably expressing rat orexin 1 receptor; 4 nM radioligand; averages of 2-20 runs; read-out: rOX1 Ki. A digest of the protocol: (§1)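 Competition binding used HEK293 cells expressing rat OX1 or CHO cells expressing human OX1, with 4 nM final [3H]-labelled thiazolyl-oxadiazolyl-pyrrolidinyl methanone radioligand in PBS. Compounds were tested at 7 concentrations (0.1 nM–10 μM) for 60 min at room temperature, then filtered; 10 μM almorexant defined nonspecific binding. Ki was derived from the one-site IC50 and the radioligand Kd.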

For another assay, the target named is human orexin 1 receptor (Homo sapiens (Human), UniProt O43613). Briefly: Human orexin 1 receptor radioligand binding (competitive). The conditions noted are these: CHO cells stably expressing human orexin 1 receptor; 4 nM radioligand; averages of 2-20 runs; read-out: hOX1 Ki. A digest of the protocol: as §1
A further assay addresses human orexin 2 receptor (Homo sapiens (Human), UniProt O43614). Briefly: Human orexin 2 receptor radioligand binding ([3H]-EMPA competition). The note with it: HEK293 stably expressing human orexin 2 receptor; 2 nM [3H]-EMPA; averages of 2-20 runs; read-out: hOX2 Ki. As to the method: The in vitro affinity of the compounds of the invention for the rat/human orexin 1 and human orexin 2 receptors was determined by competitive radioligand binding using [^3H](1-(5-(2-fluoro-phenyl)-2-methyl-thiazol-4-yl)-1-((S)-2-(5-phenyl-(1,3,4)oxadiazol-2-ylmethyl)-pyrrolidin-1-yl)-methanone) (Langmead et al., 2004) and [^3H]EMPA (n-ethyl-2[96-methoxy-pyridin-3-yl)-(toluene-2-sulfonyl)-amino]-N-pyridin-3-ylmethyl acetamide), respectively (Langmead et al., 2004, British Journal of Pharmacology 141:340-346; Malherbe et al., 2004, British Journal of Pharmacology 156:1326-41).
Data are analyzed using pc-Sandy macro and graphed on Graphpad Prism 5. For analysis, each concentration point is averaged from triplicate values and the averaged values are plotted on Graphpad Prism. The IC50 was determined by applying the following equation (GraphPad Prism 5.0, San Diego) for one site competition where X=log (concentration) and Y=specific binding. Top denotes the total [^3H]— (1-(5-(2-fluoro-phenyl)-2-methyl-thiazol-4-yl)-1-((S)-2-(5-phenyl-(1,3,4)oxadiazol-2-ylmethyl)-pyrrolidin-1-yl)-methanone) binding, bottom denotes the nonspecific [^3H]— (1-(5-(2-fluoro-phenyl)-2-methyl-thiazol-4-yl)-1-((S)-2-(5-phenyl-(1,3,4)oxadiazol-2-ylmethyl)-pyrrolidin-1-yl)-methanone) binding. Graphpad Prism calculates Ki value from IC50 and the pre-determined Kd values for [^3H]— (1-(5-(2-fluoro-phenyl)-2-methyl-thiazol-4-yl)-1-((S)-2-(5-phenyl-(1,3,4)oxadiazol-2-ylmethyl)-pyrrolidin-1-yl)-methanone) and [^3H]-EMPA. The Ki for each compound is then uploaded into 3DX. Each run comprises individual compounds in triplicate. The data in Table 1 and Table 2 represent averages from between 2-20 runs
Human Orexin 2 Receptor Radioligand Binding Studies
HEK293 stably expressing human orexin 2 receptor (Genebank accession number NM_001526) were grown to confluency in DMEM (Hyclone, cat # SH30022), 10% FBS, 1× Pen/Strep, 1× NaPyruvate, 10 mM HEPES, 600 μg/ml G418 media on 150 cm^2 tissue culture plates, washed with 5 mM EDTA in PBS (HyClone Dulbecco's Phosphate Buffered Saline 1× with Calcium and Magnesium, Cat # SH30264.01, hereafter referred to simply as PBS) and scraped into 50 ml tubes. After centrifugation (2K×G, 5 min at 4° C.), the supernatant was aspirated and the pellets frozen and stored at −80° C. Cells were resuspended in PBS in the presence of 1 tablet of protease inhibitor cocktail (Roche, Cat. #11836145001) per 50 mL. […] Compounds were solubilized in 100% DMSO (Acros Organics, Cat. #61042-1000) and tested over a range of 7 concentration (from 0.1 nM to 10 μM). The final concentration of DMSO in the reactions is equal to or less than 0.1%. Total and nonspecific binding was determined in the absence and presence of 10 μM almorexant. The total volume of each reaction is 200 μL (20 μL of diluted compounds, 80 μL of [^3H]-EMPA diluted in PBS and 100 μL of the cell suspension). Reactions were run for 60 min at room temperature and terminated by filtration through GF/C filter plates (PerkinElmer, Cat. #6005174) presoaked in 0.3% polyethylenimine using the cell harvester (PerkinElmer Filtermate). The plates were washed 3 times by aspirating 30 ml PBS through the plates. Plates were dried in 55° C. oven for 60 min, scintillation fluid was added, and the radioactivity was counted on a Topcount (Packard).

Turning to `CCC1C2CC(Oc3ccc(C(F)(F)F)cn3)C(C2)N1C(=O)c1nc(C)ccc1-n1nccn1` (racemic) [Example 215, (R/S)-[2-ethyl-5-[[5-(trifluoromethyl)-2-pyridyl]oxy]-3-azabicyclo[2.2.1]heptan-3-yl]-[6-methyl-3-(triazol-2-yl)-2-pyridyl]methanone], the Ki is 7 nM at rat orexin 1 receptor, 9 nM on human orexin 1 receptor and 517 nM at human orexin 2 receptor. In the case of `Cc1ccc(-c2ncccn2)c(C(=O)N2C(C)C3CC(Oc4cnc(C(F)(F)F)cn4)C2C3)n1` (racemic) [Example 44, (R/S)-(6-methyl-3-(pyrimidin-2-yl)pyridin-2-yl)(3-methyl-6-((5-(trifluoromethyl)pyrazin-2-yl)oxy)-2-azabicyclo[2.2.1]heptan-2-yl)methanone], the Ki at human orexin 2 receptor worked out at 7700 nM. Take `CC1C2CC(Oc3cnc(C(F)(F)F)cn3)C(C2)N1C(=O)c1ccccc1-c1ncccn1` (racemic) [Example 45]: the Ki on human orexin 1 receptor was determined as 18 nM; at human orexin 2 receptor it was 6900 nM.

Consider `Cc1cnc(-n2nccn2)c(C(=O)N2[C@H](C)[C@H]3C[C@@H](Oc4ccc(C(F)(F)F)cn4)[C@@H]2C3)c1` (relative stereo) [Example 26, (5-methyl-2-(2H-1,2,3-triazol-2-yl)pyridin-3-yl)((1S*,3R*,4R*,6R*)-3-methyl-6-((5-(trifluoromethyl)pyridin-2-yl)oxy)-2-azabicyclo[2.2.1]heptan-2-yl)methanone], for which the inhibition constant Ki on rat orexin 1 receptor worked out at 6 nM; at human orexin 1 receptor, 6 nM; at human orexin 2 receptor, 4300 nM. For the compound `CC1C2CC(Nc3cnc(C(F)(F)F)cn3)C(C2)N1C(=O)c1cccc(F)c1-c1ncccn1` (single isomer, unassigned) [Example 4, (R/S)-(3-fluoro-2-(pyrimidin-2-yl)phenyl)(3-methyl-6-((5-(trifluoromethyl)pyrazin-2-yl)amino)-2-azabicyclo[2.2.1]heptan-2-yl)methanone], on human orexin 2 receptor, the Ki was found to be 637 nM. Still for that read-out and setting: the result for `CCC1C2CC(Oc3ccc(C(F)(F)F)cn3)C(C2)N1C(=O)c1ccccc1-n1nccn1` (racemic) [Example 213, (R/S)-[2-ethyl-5-[[5-(trifluoromethyl)-2-pyridyl]oxy]-3-azabicyclo[2.2.1]heptan-3-yl]-[2-(triazol-2-yl)phenyl]methanone] reads 208 nM. The same measure, in the same setting: for `Cc1cnc(C(=O)N2[C@H](C)[C@H]3C[C@@H](Oc4ccc(C(F)(F)F)cn4)[C@@H]2C3)c(-c2ncccn2)c1` (relative stereo) [Example 35, (5-methyl-3-(pyrimidin-2-yl)pyridin-2-yl)((1S*,3R*,4R*,6R*)-3-methyl-6-((5-(trifluoromethyl)pyridin-2-yl)oxy)-2-azabicyclo[2.2.1]heptan-2-yl)methanone] the value was 4100 nM. Turning to `C[C@@H]1[C@H]2C[C@@H](Oc3cnc(C(F)(F)F)cn3)[C@H](C2)N1C(=O)c1ccccc1-n1nccn1` (relative stereo) [Example 51, (2-(2H-1,2,3-triazol-2-yl)phenyl)((1S*,3R*,4R*,6R*)-3-methyl-6-((5-(trifluoromethyl)pyrazin-2-yl)oxy)-2-azabicyclo[2.2.1]heptan-2-yl)methanone], the values for the Ki on human orexin 1 receptor and at human orexin 2 receptor were 24 nM and 2140 nM, respectively. In the case of `C[C@@H]1[C@H]2C[C@@H](Oc3cnc4ccccc4n3)[C@H](C2)N1C(=O)c1cccc(F)c1-n1nccn1` (relative stereo) [Example 184, (3-fluoro-2-(2H-1,2,3-triazol-2-yl)phenyl)((1S*,3R*,4R*,6R*)-3-methyl-6-(quinoxalin-2-yloxy)-2-azabicyclo[2.2.1]heptan-2-yl)methanone], the Ki on human orexin 2 receptor is 208 nM. Consider `C[C@@H]1[C@H]2C[C@@H](Oc3cnc(C(F)(F)F)cn3)[C@H](C2)N1C(=O)c1c(F)cccc1-n1nccn1` (relative stereo) [Example 55, (2-fluoro-6-(2H-1,2,3-triazol-2-yl)phenyl)((1S*,3R*,4R*,6R*)-3-methyl-6-((5-(trifluoromethyl)pyrazin-2-yl)oxy)-2-azabicyclo[2.2.1]heptan-2-yl)methanone], for which the Ki on human orexin 1 receptor turned out to be 20 nM; at human orexin 2 receptor, 3200 nM. Turning to `CC1C2CC(Oc3ccc(C(F)(F)F)cn3)C(C2)N1C(=O)c1cccc(F)c1-c1ncco1` (racemic) [Example 12, (R/S)-(3-fluoro-2-(oxazol-2-yl)phenyl)(3-methyl-6-((5-(trifluoromethyl)pyridin-2-yl)oxy)-2-azabicyclo[2.2.1]heptan-2-yl)methanone], the Ki at human orexin 2 receptor was 1100 nM. With `CC1C2CC(Nc3cnc(C(F)(F)F)cn3)C(C2)N1C(=O)c1cccc(F)c1-c1ncccn1` (single isomer, unassigned) [Example 67, (R/S)-(3-fluoro-2-(pyrimidin-2-yl)phenyl)(3-methyl-6-((5-(trifluoromethyl)pyrazin-2-yl)amino)-2-azabicyclo[2.2.1]heptan-2-yl)methanone], the Ki at human orexin 2 receptor worked out at 567 nM. For the compound `CC1C2CC(Oc3cnc(C(F)(F)F)cn3)C(C2)N1C(=O)c1ccccc1-n1nccn1` (racemic) [Example 43, (R/S)-(2-(2H-1,2,3-triazol-2-yl)phenyl)(3-methyl-6-((5-(trifluoromethyl)pyrazin-2-yl)oxy)-2-azabicyclo[2.2.1]heptan-2-yl)methanone], the Ki at human orexin 1 receptor is 13 nM; on human orexin 2 receptor it was 5700 nM. On to `CCC1C2CC(Oc3ccc(C(F)(F)F)cn3)C(C2)N1C(=O)c1ccccc1-c1ncc(F)cn1` (racemic) [Example 218, (R/S)-[2-ethyl-5-[[5-(trifluoromethyl)-2-pyridyl]oxy]-3-azabicyclo[2.2.1]heptan-3-yl]-[2-(5-fluoropyrimidin-2-yl)phenyl]methanone], for which the Ki at rat orexin 1 receptor is 9 nM; at human orexin 1 receptor, 9 nM; at human orexin 2 receptor it was 526 nM. `CC(C)CC1C2CC(Oc3ccc(C(F)(F)F)cn3)C(C2)N1C(=O)c1ccccc1-n1nccn1` (racemic) [Example 207, (R/S)-[2-isobutyl-5-[[5-(trifluoromethyl)-2-pyridyl]oxy]-3-azabicyclo[2.2.1]heptan-3-yl]-[2-(triazol-2-yl)phenyl]methanone]: the Ki at human orexin 2 receptor was found to be 3900 nM.

For the compound `COc1ccc(C(=O)N2[C@H](C)[C@H]3C[C@@H](Oc4ccc(C(F)(F)F)cn4)[C@@H]2C3)c(-n2nccn2)c1` (relative stereo) [Example 31, (4-methoxy-2-(2H-1,2,3-triazol-2-yl)phenyl)((1S*,3R*,4R*,6R*)-3-methyl-6-((5-(trifluoromethyl)pyridin-2-yl)oxy)-2-azabicyclo[2.2.1]heptan-2-yl)methanone], at human orexin 2 receptor, the Ki was found to be 2300 nM.

In the case of `C[C@@H]1[C@H]2C[C@@H](Oc3ccc(C(F)(F)F)cn3)[C@H](C2)N1C(=O)c1ccc(F)cc1-n1nccn1` (relative stereo) [Example 28, (4-fluoro-2-(2H-1,2,3-triazol-2-yl)phenyl)((1S*,3R*,4R*,6R*)-3-methyl-6-((5-(trifluoromethyl)pyridin-2-yl)oxy)-2-azabicyclo[2.2.1]heptan-2-yl)methanone], the Ki at human orexin 2 receptor was determined as 1300 nM.
